Measured values from PubChem BioAssay AID602330 (Sanford-Burnham Center for Chemical Genomics, 2012).
The entries are a selection whose mix differs from that of the whole data set. Calls of active or inactive are those of the source. No stated cut-off is given here; in the data, active means inhibition above about 40%; inactive means the rest.

The chains behind the UniProt entries cited, without tags or fusion partners.
UniProt P08253, whole entry: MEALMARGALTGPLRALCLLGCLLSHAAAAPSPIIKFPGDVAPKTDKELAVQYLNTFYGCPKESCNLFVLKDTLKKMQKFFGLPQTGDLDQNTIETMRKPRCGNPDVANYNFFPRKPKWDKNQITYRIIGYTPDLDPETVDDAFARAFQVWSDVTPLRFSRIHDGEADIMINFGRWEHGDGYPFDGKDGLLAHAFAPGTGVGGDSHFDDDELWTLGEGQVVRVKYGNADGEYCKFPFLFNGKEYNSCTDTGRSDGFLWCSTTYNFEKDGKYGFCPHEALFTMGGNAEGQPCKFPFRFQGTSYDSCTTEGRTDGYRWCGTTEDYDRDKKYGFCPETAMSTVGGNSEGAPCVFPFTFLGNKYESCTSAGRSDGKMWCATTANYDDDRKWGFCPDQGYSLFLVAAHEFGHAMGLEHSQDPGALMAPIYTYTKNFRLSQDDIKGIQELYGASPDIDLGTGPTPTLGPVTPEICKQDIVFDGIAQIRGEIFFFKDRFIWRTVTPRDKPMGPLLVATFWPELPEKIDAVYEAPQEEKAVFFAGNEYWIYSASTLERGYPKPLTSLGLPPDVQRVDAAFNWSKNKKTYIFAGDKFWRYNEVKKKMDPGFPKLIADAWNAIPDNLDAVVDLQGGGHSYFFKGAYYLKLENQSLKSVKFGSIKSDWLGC

biological target: 72 kDa type IV collagenase (Homo sapiens) (UniProt P08253); assay: inhibitors of human MMP-2 protease – biochemical, fluorescence, single concentration, counter-screen for RPN11 inhibitor project, confirmation (AID 602330); settings: recombinant MMP-2, FRET peptide cleavage fluorescence; at 20 µM; active compounds read high;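 further: human MMP-2 activated beforehand with APMA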

SMILES	inhibition
CCCCCCCCCCCCCCCC1C[N+](C)(C)CCOP(C)(=O)O1 (stereo unspecified)	inactive: -4.39%
